Drawing on PubChem BioAssay AID2112 (National Center for Advancing Translational Sciences (NCATS), 2009), this text covers activity change, negative = inhibition for 51 compounds.

For the experiment, the target named is Lysosomal alpha-glucosidase (Homo sapiens) (UniProt P10253). The experiment in a line: qHTS Assay for Inhibitors and Activators of Human alpha-Glucosidase From Spleen Homogenate.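 Also: 0% = enzyme with vehicle and -100% = no enzyme basal signal.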 The following applies: 4-MU-alpha-glucoside fluorescence; at 79.9 µM (top of the series) unless noted. From the text: NIH Chemical Genomics Center [NCGC] NIH Molecular Libraries Probe Production Centers Network [MLPCN] MLPCN Grant: R03 MH084841-01 Assay Submitter (PI): Wei Zheng NCGC Assay Overview: Alpha-glucosidase is responsible for the hydrolysis of terminal, non-reducing 1,4-linked alpha-D-glucose residues, which releases alpha-D-glucose. It is a lysosomal hydrolase that is required for the degradation of a small percentage (1-3%) of cellular glycogen in humans. Deficiency of this enzyme results in glycogen-storage disease type II (GSDII), also referred to as Pompe disease, an autosomal recessive disorder. Structurally normal glycogen is accumulated in the lysosomes and cytoplasm in affected patients, primarily in muscle tissues. Excessive glycogen storage within lysosomes may interrupt normal functioning of other organelles and leads to cellular injury. In turn, this leads to enlargement and dysfunction of the entire organ involved (eg: cardiomyopathy and muscle weakness). It has been reported that the improper folding and trafficking of alpha-glucosidase resulting from genetic mutations may account for a significant number of Pompe patients. […] We optimized this alpha-glucosidase assay in 1536-well plate format for identification of novel small molecule inhibitors or activators with structures other than the sugar analogs in order to develop new pharmacological chaperones. In particular, this assay is directed towards discovering compounds active in a more natural setting, tissue homogenate, that may have been missed by screens of the purified enzyme under more stringent conditions.
NCGC Assay Protocol Summary: This is a fluorogenic enzyme assay with 4-methylumbelliferyl-alpha-D-glucopyranoside as the substrate and human spleen homogenate containing alpha-glucosidase as the enzyme preparation. Upon hydrolysis of this fluorogenic substrate, the resulting product, 4-methylumbelliferone (which excites at 365 nm and emits at 440 nm) can be detected by a fluorescence plate reader. Data were normalized to the controls for basal activity (without enzyme) and 100% activity (with enzyme). The AC50 values were determined from concentration-response data modeled with the standard Hill equation. Assay buffer: 50 mM citric acid (titrated with potassium phosphate to pH 5.0), 0.01% Tween-20 (pH 5.0 is an optimal condition for this enzyme assay) 1536-well assay protocol for the alpha-glucosidase from human spleen homogenate: (1) Add 2 ul/well spleen homogenate (1 ug) (2) Add 23 nL compounds in DMSO solution. The final titration was 0.5 nM to 58 uM. (3) Add 2 ul of substrate (1 mM final) (4) Incubate at 37 C for 40 min (5) Add 2 ul stop solution (1M NaOH and 1M Glycine mixture, pH 10) (6) Detect the assay plate in a ViewLux plate reader (PerkinElmer) with Ex=365 nm and Em=440nm. Keywords: Alpha-glucosidase, Pompe Disease, pharmacological chaperone, chaperone therapy, high throughput screening, alpha-glucosidase inhibitor, MLSMR, MLSCN, NIH Roadmap, qHTS and NCGC

Values joined by “and” are separate entries in the source; they are usually repeats but may differ in a detail not shown here. Equal values may be shown once. The list shows a part of the results, in another mix than the full data. Active and inactive are the calls of the source. Calls follow the shape of the dose curve; as a rule, active = well fitted inhibition curve with a large enough effect; inconclusive = small, poorly fitted or top-dose-only effect, or effect the other way, or another doubt; inactive = no such curve, though single readings can be large or run the other way.

Take `O=C(/C=C/c1ccccc1)OC1CN2CCC1CC2` (stereo unspecified): the activity change, negative = inhibition was inactive: -2.04%.

Consider `O=P1(Nc2ncccn2)COc2ccccc2OC1`, for which the activity change, negative = inhibition is inactive: 0.678%. With `Nc1cccc([As](=O)(O)c2ccccc2)c1`, the activity change, negative = inhibition is inactive: 1.49%. `Cc1ccc(OCC(=O)OC2CN3CCC2CC3)cc1` (stereo unspecified): the activity change, negative = inhibition was inactive: -1.52%. Then `O=[As](O)(c1cccs1)c1cccs1`, with inactive: 4.49%.

Regarding `O=P1(Nc2ccc(Br)cn2)COc2ccccc2OC1`, the activity change, negative = inhibition is inactive: -0.592%. Then `O=P1(Nc2ccccn2)COc2ccccc2OC1`, with inactive: 3.76%; and `CCOP(=O)(Nc1ccc(C)cn1)OCC`, with inactive: -3.5%.

For the compound `CN(CCCl)Cc1cc(Cl)c(NC2=NCCN2)c(Cl)c1`, the activity change, negative = inhibition is inactive: 1.83% and inactive: -10.3%. Then `Clc1n[nH]nc1-c1nn[nH][15n]1`, with inactive: -18.6%; and `CC(C)(C)C(=O)NC(Sc1ncccn1)C(Cl)(Cl)Cl` (stereo unspecified), with inactive: 0.0881%; and `O=[As](O)(c1ccccc1Br)c1ccccc1Br`, with inactive: -11.2%. Then `CC(C)C(=O)NC(Sc1ccccc1)C(Cl)(Cl)Cl` (stereo unspecified), with inactive: -11.7%; and `O=P(Nc1nccs1)(c1ccccc1)c1ccccc1`, with inactive: 1.86%. Then `c1nnnn1CCn1cnnn1`, with inactive: -1.87%; and `CCC(C)(OOC(C)(C)C)OOC(C)(C)C`, with inactive: 1.09%.

As to `O=P(Nc1ccccn1)(c1ccc(Br)cc1)c1ccc(Br)cc1`, the activity change, negative = inhibition was inactive: 5.53%. Then `Cc1cc([N+](=O)[O-])cc([N+](=O)[O-])c1O`, with inactive: -7.07%. Take `O=P(Nc1nc2ccccc2s1)(c1ccccc1)c1ccccc1`: the activity change, negative = inhibition is inactive: 0.43%.

For `C[C@H]1OP(=O)(Oc2ccccc2)[C@H](O)[C@H](O)[C@H]1N=[N+]=[N-]` (stereo partly specified), the activity change, negative = inhibition was inactive: -9.84%. Then `O=[As](O)(c1ccccc1)c1ccc(O)cc1`, with inactive: 4.69%; and `CC(=O)NC(SC(=S)N(C)C)C(Cl)(Cl)Cl` (stereo unspecified), with inactive: -4.65%; and `O=[N+]([O-])c1ncn(CCn2cnc([N+](=O)[O-])n2)n1`, with inactive: -2.79%. Then `O=C(OC1CN2CCC1CC2)c1cccc(Cl)c1` (stereo unspecified), with inactive: -4.53%; and `C(Cc1nn[nH]n1)Cc1nn[nH]n1`, with inactive: -9.6%. As to `Nc1ccc([As](=O)(O)c2ccc([N+](=O)[O-])cc2)cc1`, the activity change, negative = inhibition was inactive: 4.17%. Consider `c1ccc(-c2nn[nH]n2)c(-c2nn[nH]n2)c1`, for which the activity change, negative = inhibition is inactive: -2.41%. On to `Cc1ccc(NP(=O)(Oc2cccc(C)c2)Oc2cccc(C)c2)nc1`, for which the activity change, negative = inhibition is inactive: 3.84%. Take `CCOC(=O)NC(Sc1ccccc1)C(Cl)(Cl)Cl` (stereo unspecified): the activity change, negative = inhibition was inactive: -9.78%. For `CCNC(=S)/N=C(\N)N[N+](=O)[O-]`, the activity change, negative = inhibition is inactive: 2.13%. Then `O=C(NC1CCS(=O)(=O)C1)NP(=S)(Oc1ccccc1)Oc1ccccc1` (stereo unspecified), with inactive: 5.48%. With `CCC(=O)N1C2C3N(C(=O)CC)C1C1N(C(=O)CC)C(C(N1C(=O)CC)N3C(=O)CC)N2C(=O)CC`, the activity change, negative = inhibition was inactive: -4.78%.

For `COC(=O)c1cc2c(s1)N=C(c1ccccc1)N(C)P2(=O)N1CCOCC1` (stereo unspecified), the activity change, negative = inhibition is inactive: -0.89%. Then `CC(=O)NC(SC(=S)N(CC(C)C)CC(C)C)C(Cl)(Cl)Cl` (stereo unspecified), with inactive: -4.56%. On to `Cc1ccc(OP(=O)(Nc2ccccn2)Oc2ccc(C)cc2)cc1`, for which the activity change, negative = inhibition is inactive: 0.638%. Then `Cc1ccccc1OP(=O)(Nc1ccccn1)Oc1ccccc1C`, with inactive: -0.135%; and `O=c1c2cc([N+](=O)[O-])ccc2[nH]c2c([N+](=O)[O-])cc([N+](=O)[O-])cc12`, with inactive: -0.867%; and `CN(C)C(=O)Oc1noc2ccccc12`, with inactive: -1.34%. As to `O=P1(Nc2nc3ccc(Cl)cc3s2)COc2ccccc2O1` (stereo unspecified), the activity change, negative = inhibition is inactive: -20%. Then `CCOc1ccc(C2=NCC(CBr)S2)cc1` (stereo unspecified), with inactive: -0.0699%; and `CC(C)(C)C(=O)NC(Sc1ccccc1)C(Cl)(Cl)Cl` (stereo unspecified), with inactive: 5.77%. Regarding `C[C@H]1OP(=O)(Oc2ccccc2)C[C@@H]2O[C@@H]21` (stereo partly specified), the activity change, negative = inhibition was inactive: -8.59%.

Consider `C[C@@H]1C=CCP(=O)(Oc2ccccc2)O1` (stereo partly specified), for which the activity change, negative = inhibition was inactive: -2.98%. Then `CC(=O)Nc1ccc([As](=O)(O)O)c(O)c1`, with inactive: 5.15%; and `CC(=O)Nc1ccc(Oc2c([N+](=O)[O-])cc([N+](=O)[O-])cc2[N+](=O)[O-])cc1`, with inactive: -10.9%. With `Cc1ccc(N/C(=N/P(=O)(N2CCOCC2)N2CCOCC2)N2CCOCC2)cc1`, the activity change, negative = inhibition was inactive: 0.672%. As for `NC(=O)c1cc([N+](=O)[O-])cc([N+](=O)[O-])c1N`, the activity change, negative = inhibition was inactive: -10.7%.

`CN1CCCC(OC(=O)C(c2ccccc2)c2ccccc2)C1` (stereo unspecified): the activity change, negative = inhibition was inactive: -6.89%. Then `Clc1ccc(Cl)c(NC2=NCC(CBr)S2)c1` (stereo unspecified), with inactive: -2.22%; and `COc1ccccc1OP(=O)(Nc1ccc(C)cn1)Oc1ccccc1OC`, with inactive: 1.91%; and `Cc1ccc(OP(=O)(Nc2nccs2)Oc2ccc(C)cc2)cc1`, with inactive: 3.66%.
